# Measurements taken from PubChem BioAssay AID540303 (National Center for Advancing Translational Sciences (NCATS), 2011).
# This is a selection; strong and weak results do not stand in their true shares. Records with an inconclusive call do not appear. Activity calls are given as the source filed them. Calls follow the shape of the dose curve; as a rule, active = well fitted inhibition curve with a large enough effect; inconclusive = small, poorly fitted or top-dose-only effect; inactive = no such curve, though single readings can be large or run the other way; tested in mouse RAW 264.7 cells.
# Assay: qHTS for Inhibitors of Cell Surface uPA Generation; also: nearly all actives have a fitted effect of over 55% in size
# Details: cell surface uPA generation assay; series mostly up to 38.3 µM; activity change, negative = inhibition: at the top concentration
# Description: The overall objective of this project is to perform a quantitative high throughput screen (qHTS) to identify novel compounds that inhibit the generation of cell surface urokinase activity. The urokinase plasminogen activator (uPA) is one of the two primary endogenous systems that mediate plasminogen activation into plasmin. Members of this system, including uPA and its receptor (uPAR), are overexpressed in several malignant tumors. This system plays a major role in adhesion, migration, invasion and metastasis of cancer cells. Small molecule inhibitors of the uPA system will serve as probes to understand the molecular mechanisms of the uPA cascade and better understanding the microenvironmental circumstances that facilitate the activation of plasminogen by uPA, and finally may provide novel candidate agents for anticancer drug therapy.
# […] […] Upon inhibition of the uPA activation cascade, the subsequent cell surface uPA activity-dependent translocation of LF into the cytoplasm is inhibited. ATP-Lite is used to measure intracellular ATP concentrations, which remain increased if LF entry into the cytoplasm is inhibited. This validation assay was performed using a small set of validation compounds.
# NIH Chemical Genomics Center [NCGC]
# NIH Molecular Libraries Probe Centers Network [MLPCN]
# Assay Submitter (PI): Thomas Bugge, National Institute of Dental and Craniofacial Research, NIH
# Cultured RAW 264.7 were dispensed into 1536-well clear bottom, white walled tissue culture plates at a density of 4000 cells/well and were incubated overnight (12-16 h) at 37 C in a 5% CO2 incubator. Serially diluted compounds in 23 nl DMSO were added to cells. […] Compound and reagent-treated plates were incubated for 24 h at 37 C in a 5% CO2 incubator. Perkin Elmer ATPlitetrade mark 1 step (3 ul) was then added to each well. Luminescence was detected using a Perkin Elmer ViewLuxtrade mark plate reader.
# 1.Dispensing RAW 264.7 cells into 1536-well, white walled tissue culture plates at a density of 4000 cells/well (4 uL).
# 2.Incubation at 37 C in a 5% CO2 incubator overnight.
# 3.Serially diluting compounds (1:5 serial dilution; 0.0024 uM to […] final concentration) in 23 nl DMSO.
# 5.Incubating the compound and reagent-treated plates for 24 hours at 37 C in a 5% CO2 incubator.
# 6.Adding ATP-Lite (3 ul).
# 7.Reading plates by ViewLux with an exposure length of 5 seconds.
# % is scaled to controls: 0 for no effect and ±100 for the full control effect.
row,SMILES,"activity change, negative = inhibition"
1,O=P1(N(CCCl)CCCl)OCCCS1 (stereo unspecified),inactive: -0.326%
2,O=C(Nc1cc([As](=O)(O)O)ccc1O)c1ccccc1,inactive: -5.74%
3,CC(C)(C)C(=O)NC(Sc1ccncn1)C(Cl)(Cl)Cl (stereo unspecified),inactive: -9.51%
4,O=[N+]([O-])c1ncn(CCn2ncnc2[N+](=O)[O-])n1,inactive: 4.66%
5,O=[N+]([O-])c1cccc(NC2=NCC(CBr)S2)c1 (stereo unspecified),inactive: 3.63%
6,COC(=O)C1(C)COP(=O)(Nc2ccccc2)OC1 (stereo unspecified),inactive: 6.12%
7,O=C(O)CNc1ccc([As](=O)(O)O)cc1,inactive: 9.87%
8,COc1ccc(C2=NCC(CBr)S2)cc1 (stereo unspecified),inactive: 1.18%
9,CC(=O)N1C2C3N(C(C)=O)C1C1N(C(C)=O)C(C(N1C(C)=O)N3C(C)=O)N2C(C)=O,inactive: 2.84%
10,O=[N+]([O-])c1cccc2n[nH]nc12,inactive: -4.14%
11,Cc1ccc(NP(=O)(Oc2ccccc2)Oc2ccccc2)nc1,inactive: 0.908%
12,O=[N+]([O-])c1cc([N+](=O)[O-])c(CCNc2ccccc2)c([N+](=O)[O-])c1,inactive: -5.99%
13,CCc1nc2c(n1)c1c(non1O)c1c2no[n+]1[O-],inactive: -7.86%
14,Nc1ccc([As](=O)(O)c2ccc(N)cc2)cc1,inactive: 0.407%
15,CCN(/C(=N/P(=O)(N1CCOCC1)N1CCOCC1)N1CCOCC1)c1ccc(OC)cc1,inactive: 4.54%
16,CC(C)=N/N=C(\N)N[N+](=O)[O-],inactive: -2.04%
17,CN(C)C(=O)OCCc1n(C)cc[n+]1C,inactive: 3.79%
18,CC1CCN(C(=O)Oc2c(Cl)cc(Cl)c3cccnc23)CC1,inactive: 4.69%
19,NC(=O)c1cc([N+](=O)[O-])cc([N+](=O)[O-])c1N,inactive: -4.3%
20,Cc1ccc(N/C(=N/P(=O)(N2CCOCC2)N2CCOCC2)N2CCOCC2)cc1,inactive: 5.64%
21,COc1ccccc1OP(=O)(Nc1ccc(C)cn1)Oc1ccccc1OC,inactive: 4.36%

row,SMILES,"activity change, negative = inhibition"
1,Cc1ccc(OP(=O)(Nc2nccs2)Oc2ccc(C)cc2)cc1,inactive: 8.12%
2,Clc1ccc(Cl)c(NC2=NCC(CBr)S2)c1 (stereo unspecified),inactive: 5.98%
3,CN1CCCC(OC(=O)C(c2ccccc2)c2ccccc2)C1 (stereo unspecified),inactive: 7.29%
4,CC(C)CC(=O)NC(Sc1ccc(Cl)cc1)C(Cl)(Cl)Cl (stereo unspecified),inactive: 7.74%
5,Nc1cc(N)c2nonc2c1[N+](=O)[O-],inactive: 0.505%
6,Oc1ccccc1CNc1ccccn1,inactive: -2.33%
7,O=C(NC(Sc1ccncn1)C(Cl)(Cl)Cl)c1ccccc1 (stereo unspecified),inactive: 2.92%
8,O=C(O)c1ccccc1[As](=O)(O)O,inactive: 4.8%
9,CC(=O)Nc1ccc([As](=O)(O)O)cc1,inactive: 1.48%
10,CCCC1OP(N)(=O)OCC1CC (stereo unspecified),inactive: -4.95%
11,O=P(Nc1nc2ccc(Cl)cc2s1)(c1ccccc1)c1ccccc1,inactive: 2.41%
12,CCOP(=O)(Nc1ccccc1)OCC,inactive: 11%
13,Cc1cc(SC(NC(=O)c2ccc(F)cc2)C(Cl)(Cl)Cl)ncn1 (stereo unspecified),inactive: 5.72%
14,Cc1ccc(NP(=O)(Oc2ccccc2F)Oc2ccccc2F)nc1,inactive: -0.757%
15,CCN(N=Nc1nonc1N)c1nonc1N,inactive: 11.1%
16,Nc1cccc2ccc([As](=O)(O)O)cc12,inactive: 6.53%
17,O=C(NC1CCS(=O)(=O)C1)NP(=S)(Oc1ccccc1)Oc1ccccc1 (stereo unspecified),inactive: 0.448%
18,CCNC(=S)/N=C(\N)N[N+](=O)[O-],inactive: -1.48%
19,c1ccc(-c2nn[nH]n2)c(-c2nn[nH]n2)c1,inactive: 4.37%
20,Cc1ccc(NP(=O)(Oc2cccc(C)c2)Oc2cccc(C)c2)nc1,inactive: -0.528%
21,O=P1(N(CCCl)CCCl)OCCC2CCCCN21 (stereo unspecified),inactive: -2.31%

row,SMILES,"activity change, negative = inhibition"
1,COC(=O)c1cc2c(s1)N=C(c1ccccc1)N(C)P2(=O)N1CCOCC1 (stereo unspecified),inactive: -0.168%
2,Cc1ccc(OP(=O)(Nc2ccccn2)Oc2ccc(C)cc2)cc1,inactive: 4.54%
3,CC(=O)NC(SC(=S)N(CC(C)C)CC(C)C)C(Cl)(Cl)Cl (stereo unspecified),inactive: -0.668%
4,O=C(OC1CN2CCC1CC2)c1ccccc1 (stereo unspecified),inactive: -14.2%
5,CCC(=O)N1C2C3N(C(=O)CC)C1C1N(C(=O)CC)C(C(N1C(=O)CC)N3C(=O)CC)N2C(=O)CC,inactive: 2.43%
6,Cc1ccccc1OP(=O)(Nc1ccccn1)Oc1ccccc1C,inactive: 8.73%
7,CC(NC(=O)COC(=O)C(O)(c1ccccc1)c1ccccc1)c1ccccc1 (stereo unspecified),inactive: 5.06%
8,CN(C)C(=O)Oc1noc2ccccc12,inactive: -3.62%
9,O=c1c2cc([N+](=O)[O-])ccc2[nH]c2c([N+](=O)[O-])cc([N+](=O)[O-])cc12,inactive: -18.3%
10,O=P1(Nc2nc3ccc(Cl)cc3s2)COc2ccccc2O1 (stereo unspecified),inactive: -2.1%
11,CCOc1ccc(C2=NCC(CBr)S2)cc1 (stereo unspecified),inactive: 11.1%
12,CCc1cc(O)c([N+](=O)[O-])c(C)c1[N+](=O)[O-],inactive: -0.862%
13,CC(C)(C)C(=O)NC(Sc1ccccc1)C(Cl)(Cl)Cl (stereo unspecified),inactive: -0.592%
14,N#C/C(=C\c1ccc(N(CCBr)CCBr)cc1)C(N)=O,inactive: -8.25%
15,CC(=O)c1ccc(N2CC2c2ccncc2)cc1 (stereo unspecified),inactive: -1.33%
16,COC(=O)C1(C)COP(=O)(NCc2ccccc2)OC1 (stereo unspecified),inactive: 2.03%
17,Cc1ccccc1CN(C)C(=O)COC(=O)C(O)(c1ccccc1)c1ccccc1,inactive: 4.29%
18,C[C@@H]1C=CCP(=O)(Oc2ccccc2)O1 (stereo partly specified),inactive: 6.09%
19,C[C@H]1OP(=O)(Oc2ccccc2)C[C@@H]2O[C@@H]21 (stereo partly specified),inactive: -2.98%
